# Target: T1, BRD4-2 (Homo sapiens, UniProt O60885)
# T1 construct: made in house; host or cells: Escherichia coli
# Test: BRD4-2 Ligand KI assay (TR-FRET displacement of Cy5 labeled probe)
# Format: binding
# Settings: 10 nM labeled ligand, 0.5 nM BRD4-2; Ki from IC50 by Cheng and Prusoff; read-out: BRD4-2 Ligand K2
# Procedure: Binding of the two tandem bromodomains, BRD4-I and BRD4-2, to a Cy5 labeled probe/ligand (Compound 201-A) were measured using a homogeneous time resolved fluorescence resonance energy transfer (TR-FRET) assay.
# The labeled ligand specifically binds BRD4-1 and BRD4-2 and can be displaced by a small molecule inhibitor that shares a similar or overlapping binding site. BRD4-I and BRD4-2 were expressed and purified from Escherichia coli as N-terminal His6-tagged proteins. A Eu-cryptate labeled anti-His antibody (Perkin Elmer) was used to specifically bind BRD4. […] Assays were performed in 50 mM Hepes (pH 7.5), 150 mM NaCl, 0.1 mg/ml BSA, 0.01% (v/v) Brij, 0.5% (v/v) DMSO and 10 nM labeled ligand at the following concentrations for each BRD4 isoform: 2 nM BRD4-1 and 0.5 nM BRD4-2. After an assay reaction time of 60 minutes at 25° C., binding was measured with 2 nM Eu-cryptate labeled anti-His antibody. TR-FRET signal was detected on an Envision plate reader (Ex: 320 nm; Em: 615/665 nm; 100 μs delay and 200 μs read window). Data were normalized based on a positive (2 μM I-BET) and negative (DMSO) controls and IC50 values were calculated from the fit of the dose-response curves to a four-parameter equation. All IC50 values represent geometric mean values of a minimum of four determinations. […]
smiles,measurement,value
"Cc1noc(C)c1-c1cc(C(O)(c2cnccn2)c2c(F)cccc2F)c2[nH]c(=O)[nH]c2c1 (stereo not shown) [Example 49, 4-((2,6-difluorophenyl)(hydroxy)(pyrazin-2-yl)methyl)-6-(3,5-dimethylisoxazol-4-yl)-1H-benzo[d]imidazol-2(3H)-one]",Ki,2.7 nM

# Reference: patent publication US20160031868A1, “BENZIMIDAZOLONE DERIVATIVES AS BROMODOMAIN INHIBITORS” (GILEAD SCIENCES, INC., priority 2013, published 2016)
